Data taken from PMC5333931 (ACS chemical neuroscience, 2016).

Molecular target: T1, GIRK4* channel (Homo sapiens, UniProt P48544, S143T)
T1 sequence (P48544 1-419 S143T): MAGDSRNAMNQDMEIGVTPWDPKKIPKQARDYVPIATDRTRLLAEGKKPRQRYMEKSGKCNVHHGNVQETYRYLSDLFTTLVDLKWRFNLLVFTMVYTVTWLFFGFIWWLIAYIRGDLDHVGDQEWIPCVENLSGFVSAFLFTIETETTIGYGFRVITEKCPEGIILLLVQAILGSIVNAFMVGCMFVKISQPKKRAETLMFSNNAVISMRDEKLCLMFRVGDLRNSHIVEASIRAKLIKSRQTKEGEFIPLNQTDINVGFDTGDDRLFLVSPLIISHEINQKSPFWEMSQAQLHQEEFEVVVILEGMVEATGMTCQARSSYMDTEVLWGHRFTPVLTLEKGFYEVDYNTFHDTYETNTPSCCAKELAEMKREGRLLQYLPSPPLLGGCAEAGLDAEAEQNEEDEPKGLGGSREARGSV
Test: TEVC, oocytes expressing GIRK4* alone versus GIRK4* and 5-HT2A receptors
Format: cell-based
Conditions: 50 µM or higher; suggests direct inhibition of GIRK4* channel

In the case of `Cc1nc2n(c(=O)c1CCN1CCC(c3noc4cc(F)ccc34)CC1)CCCC2` [compound 1, risperidone, reference compound], the “current inhibition in oocytes expressing GIRK4* alone versus GIRK4* and 5-HT2A receptors” value was “no significant differences”.
